Sequences of proteins named here, by UniProt entry; tags and fusion partners are left off. Residues count along the entry.
UniProt P22629, 37-163 limits assumed: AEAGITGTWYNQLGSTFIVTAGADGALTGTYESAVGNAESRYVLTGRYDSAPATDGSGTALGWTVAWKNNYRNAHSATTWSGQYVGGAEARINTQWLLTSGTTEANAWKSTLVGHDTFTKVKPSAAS

In US20250128187A1:

Target: streptavidin immobilized on membrane (streptavidin modified membrane prepared according to FIG. 10) (Streptomyces avidinii) (UniProt P22629)
Test: depletion from solution; 0.0055 mL streptavidin membrane incubated in 0.4 mL of 1 mg/mL biotin-conjugate for 24 hours

Substance “biotin-Protein A (from UniProt P38507 37-477)” has an Amount Immobilized (mg biotin-conjugate/mL membrane) (mg biotin-conjugate/mL membrane) of 9.7.
